Measured values from ChEMBL document CHEMBL5321287, “Discovery, Synthesis, and Evaluation of Novel Dual Inhibitors of a Vascular Endothelial Growth Factor Receptor and Poly(ADP-Ribose) Polymerase for BRCA Wild-Type Breast Cancer Therapy” (J Med Chem, 2023).
Blank lines part the entries; values can stand above or below the compound they belong to. Active and inactive are the calls of the source. The rule behind the calls is not given here.

Protein sequences, listed by entry. Tags and fused reporters are not part of them.
UniProt P17948, whole entry: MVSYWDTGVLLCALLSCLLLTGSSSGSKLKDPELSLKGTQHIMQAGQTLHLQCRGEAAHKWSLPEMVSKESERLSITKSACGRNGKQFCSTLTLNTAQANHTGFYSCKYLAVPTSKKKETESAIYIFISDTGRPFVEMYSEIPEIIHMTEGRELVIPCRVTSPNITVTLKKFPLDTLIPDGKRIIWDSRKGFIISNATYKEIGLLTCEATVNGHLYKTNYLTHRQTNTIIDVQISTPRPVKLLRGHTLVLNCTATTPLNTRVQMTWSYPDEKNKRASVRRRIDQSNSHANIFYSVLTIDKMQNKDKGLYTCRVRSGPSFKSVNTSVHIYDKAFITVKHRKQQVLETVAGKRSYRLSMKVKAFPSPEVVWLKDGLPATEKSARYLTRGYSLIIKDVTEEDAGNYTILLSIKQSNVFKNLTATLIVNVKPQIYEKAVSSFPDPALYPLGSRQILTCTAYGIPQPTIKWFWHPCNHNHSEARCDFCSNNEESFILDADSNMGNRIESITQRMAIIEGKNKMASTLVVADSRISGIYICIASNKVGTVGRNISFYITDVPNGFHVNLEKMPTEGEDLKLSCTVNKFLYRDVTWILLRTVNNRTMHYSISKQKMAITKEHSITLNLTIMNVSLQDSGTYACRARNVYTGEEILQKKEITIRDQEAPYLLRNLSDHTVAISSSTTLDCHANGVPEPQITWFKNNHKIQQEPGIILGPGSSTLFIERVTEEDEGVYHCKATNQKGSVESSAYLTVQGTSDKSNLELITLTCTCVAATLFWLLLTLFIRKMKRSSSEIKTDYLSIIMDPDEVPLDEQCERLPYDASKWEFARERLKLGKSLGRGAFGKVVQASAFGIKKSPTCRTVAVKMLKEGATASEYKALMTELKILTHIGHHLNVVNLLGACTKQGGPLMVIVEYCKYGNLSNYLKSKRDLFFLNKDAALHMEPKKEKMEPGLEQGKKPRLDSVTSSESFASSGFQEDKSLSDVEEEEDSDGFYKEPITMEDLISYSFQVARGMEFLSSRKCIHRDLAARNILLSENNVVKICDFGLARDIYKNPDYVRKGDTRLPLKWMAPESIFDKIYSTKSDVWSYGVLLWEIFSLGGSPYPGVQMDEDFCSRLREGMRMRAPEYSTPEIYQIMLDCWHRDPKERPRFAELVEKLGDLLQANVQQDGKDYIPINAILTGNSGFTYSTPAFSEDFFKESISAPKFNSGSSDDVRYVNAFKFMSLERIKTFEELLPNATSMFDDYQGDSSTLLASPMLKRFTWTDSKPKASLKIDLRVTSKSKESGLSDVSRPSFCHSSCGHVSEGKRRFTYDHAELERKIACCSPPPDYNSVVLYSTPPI
UniProt P35968, whole entry: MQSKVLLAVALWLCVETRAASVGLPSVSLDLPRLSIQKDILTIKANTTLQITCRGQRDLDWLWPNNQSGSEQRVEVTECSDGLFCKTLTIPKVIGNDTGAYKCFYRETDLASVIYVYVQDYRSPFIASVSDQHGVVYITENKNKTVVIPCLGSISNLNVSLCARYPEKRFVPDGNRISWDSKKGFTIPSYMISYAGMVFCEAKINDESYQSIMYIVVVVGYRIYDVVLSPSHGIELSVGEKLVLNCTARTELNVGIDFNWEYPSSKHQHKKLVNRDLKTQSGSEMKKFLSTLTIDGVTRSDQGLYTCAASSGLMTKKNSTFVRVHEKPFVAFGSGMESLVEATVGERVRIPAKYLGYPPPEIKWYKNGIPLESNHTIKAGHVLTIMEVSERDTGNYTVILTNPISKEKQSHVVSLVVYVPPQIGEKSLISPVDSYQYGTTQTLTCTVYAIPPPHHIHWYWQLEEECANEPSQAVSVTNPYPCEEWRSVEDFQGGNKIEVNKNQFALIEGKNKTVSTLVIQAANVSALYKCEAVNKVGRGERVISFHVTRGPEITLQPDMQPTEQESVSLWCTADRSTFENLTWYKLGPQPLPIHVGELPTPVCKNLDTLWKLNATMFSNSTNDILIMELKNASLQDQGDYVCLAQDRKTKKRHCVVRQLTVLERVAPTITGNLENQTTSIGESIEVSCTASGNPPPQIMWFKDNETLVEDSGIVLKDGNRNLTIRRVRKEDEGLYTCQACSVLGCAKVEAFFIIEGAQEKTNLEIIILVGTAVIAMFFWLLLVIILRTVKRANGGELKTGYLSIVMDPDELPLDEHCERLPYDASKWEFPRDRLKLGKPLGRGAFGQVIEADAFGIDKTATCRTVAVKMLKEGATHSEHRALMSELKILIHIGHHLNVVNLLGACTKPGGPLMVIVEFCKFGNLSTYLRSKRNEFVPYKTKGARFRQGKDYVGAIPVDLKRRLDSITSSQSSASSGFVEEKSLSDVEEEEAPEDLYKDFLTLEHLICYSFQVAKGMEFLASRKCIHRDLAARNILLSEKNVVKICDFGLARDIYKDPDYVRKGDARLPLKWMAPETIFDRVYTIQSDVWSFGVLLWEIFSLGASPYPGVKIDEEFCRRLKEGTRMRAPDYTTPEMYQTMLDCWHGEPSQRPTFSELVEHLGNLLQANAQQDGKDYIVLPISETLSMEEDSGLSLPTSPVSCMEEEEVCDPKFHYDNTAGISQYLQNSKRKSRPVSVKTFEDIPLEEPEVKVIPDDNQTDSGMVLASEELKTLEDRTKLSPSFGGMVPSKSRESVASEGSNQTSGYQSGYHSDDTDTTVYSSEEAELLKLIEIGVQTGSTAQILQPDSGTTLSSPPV
UniProt P35916, whole entry: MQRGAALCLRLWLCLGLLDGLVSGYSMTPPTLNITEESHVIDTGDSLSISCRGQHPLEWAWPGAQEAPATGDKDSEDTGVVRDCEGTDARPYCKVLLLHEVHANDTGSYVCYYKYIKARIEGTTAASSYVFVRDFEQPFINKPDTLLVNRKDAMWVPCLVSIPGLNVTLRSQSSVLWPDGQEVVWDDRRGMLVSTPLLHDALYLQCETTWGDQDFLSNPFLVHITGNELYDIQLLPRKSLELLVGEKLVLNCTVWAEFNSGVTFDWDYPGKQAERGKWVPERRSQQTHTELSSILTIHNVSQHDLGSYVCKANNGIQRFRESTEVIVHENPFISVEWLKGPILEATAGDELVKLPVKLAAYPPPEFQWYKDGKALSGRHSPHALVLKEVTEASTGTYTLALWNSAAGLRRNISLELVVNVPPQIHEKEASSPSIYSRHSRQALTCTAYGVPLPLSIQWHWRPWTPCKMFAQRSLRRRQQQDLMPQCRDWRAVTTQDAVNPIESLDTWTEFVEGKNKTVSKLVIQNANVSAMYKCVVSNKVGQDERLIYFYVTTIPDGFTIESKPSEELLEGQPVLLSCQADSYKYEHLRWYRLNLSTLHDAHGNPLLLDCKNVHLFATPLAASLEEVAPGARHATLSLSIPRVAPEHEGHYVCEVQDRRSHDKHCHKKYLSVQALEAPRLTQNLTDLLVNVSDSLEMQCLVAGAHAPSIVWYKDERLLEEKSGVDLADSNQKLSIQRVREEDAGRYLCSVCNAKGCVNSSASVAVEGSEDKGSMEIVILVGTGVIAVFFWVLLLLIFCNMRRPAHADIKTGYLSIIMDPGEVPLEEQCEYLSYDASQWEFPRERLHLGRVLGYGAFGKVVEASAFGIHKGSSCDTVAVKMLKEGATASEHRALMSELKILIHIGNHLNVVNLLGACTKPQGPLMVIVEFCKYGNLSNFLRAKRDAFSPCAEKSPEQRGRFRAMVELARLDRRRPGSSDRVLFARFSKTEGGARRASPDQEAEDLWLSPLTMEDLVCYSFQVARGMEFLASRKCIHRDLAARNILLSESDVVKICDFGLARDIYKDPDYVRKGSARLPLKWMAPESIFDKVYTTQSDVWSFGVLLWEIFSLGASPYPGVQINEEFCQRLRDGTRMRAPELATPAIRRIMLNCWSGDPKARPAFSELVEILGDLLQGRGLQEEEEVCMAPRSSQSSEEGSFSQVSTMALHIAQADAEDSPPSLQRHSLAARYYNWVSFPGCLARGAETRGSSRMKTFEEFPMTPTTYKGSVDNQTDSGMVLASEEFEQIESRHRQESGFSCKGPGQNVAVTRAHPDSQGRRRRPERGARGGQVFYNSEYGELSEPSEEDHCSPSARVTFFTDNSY

How the values were obtained:
MCF7 [1] = assay: Antimigratory activity in human MCF7 cells assessed as downregulation of MMP-2 level at 4 uM incubated for 2 days by immunoblot analysis; format: functional, cell-based; details: time 2.0 day
MCF7 [2] = assay: Induction of HR DNA repair in human MCF7 cells assessed as decrease in RAD51 level at 4 uM incubated for 48 hrs by DAPI staining based immunofluorescence analysis; format: functional, cell-based
[3] = target: T1, Vascular endothelial growth factor receptor 1 (Homo sapiens, UniProt P17948); details: MDA-MB-231, dose 25-50 mg/kg, route po, time 14.0 day
[4] = target: T2, Vascular endothelial growth factor receptor 2 (Homo sapiens, UniProt P35968); details: MDA-MB-231, dose 50.0 mg/kg, route po, time 14.0 day
[5] = target: T2, Vascular endothelial growth factor receptor 2; details: MDA-MB-231, dose 25-50 mg/kg, route po, time 14.0 day
MDA-MB-231 [6] = assay: Induction of HR DNA repair in human MDA-MB-231 cells assessed as decrease in RAD51 level at 4 uM incubated for 48 hrs by DAPI staining based immunofluorescence analysis; format: functional, cell-based
[7] = target: T1, Vascular endothelial growth factor receptor 1; details: MDA-MB-231, dose 50.0 mg/kg, route po, time 14.0 day
MDA-MB-231 [8] = assay: Antimigratory activity in human MDA-MB-231 cells assessed as upregulation of E-cadherin level at 4 uM by DAPI staining based immunofluorescence analysis; format: functional, cell-based
MCF7 [9] = assay: Induction of DNA damage in human MCF7 cells assessed as increase in gamma-H2AX level at 4 uM incubated for 48 hrs by DAPI staining based immunofluorescence analysis; format: functional, cell-based
[10] = target: T3, Vascular endothelial growth factor receptor 3 (Homo sapiens, UniProt P35916); details: MDA-MB-231, dose 50.0 mg/kg, route po, time 14.0 day
MDA-MB-231 [11] = assay: Induction of DNA damage in human MDA-MB-231 cells assessed as increase in gamma-H2AX level at 4 uM incubated for 48 hrs by DAPI staining based immunofluorescence analysis; format: functional, cell-based
MDA-MB-231 [12] = assay: Antimigratory activity in human MDA-MB-231 cells assessed as downregulation of MMP-2 level at 4 uM incubated for 2 days by immunoblot analysis; format: functional, cell-based; details: time 2.0 day
MCF7 [13] = assay: Antimigratory activity in human MCF7 cells assessed as upregulation of E-cadherin level at 4 uM by DAPI staining based immunofluorescence analysis; format: functional, cell-based
MCF7 [14] = assay: Antimigratory activity in human MCF7 cells assessed as downregulation of MMP-2 level at 4 uM by DAPI staining based immunofluorescence analysis; format: functional, cell-based
MDA-MB-231 [15] = assay: Induction of cell cycle arrest at S phase in human MDA-MB-231 cells at 4 uM by Annexin-V-FLUOS staining based flow cytometry; format: functional
MCF7 [16] = assay: Induction of cell cycle arrest at G2/M phase in human MCF7 cells at 4 uM by Annexin-V-FLUOS staining based flow cytometry; format: functional
[17] = target: T3, Vascular endothelial growth factor receptor 3; details: MDA-MB-231, dose 25-50 mg/kg, route po, time 14.0 day
MDA-MB-231 [18] = assay: Induction of cell cycle arrest at G2/M phase in human MDA-MB-231 cells at 4 uM by Annexin-V-FLUOS staining based flow cytometry; format: functional
MCF7 [19] = assay: Antimigratory activity in human MCF7 cells assessed as upregulation of E-cadherin level at 4 uM incubated for 2 days by immunoblot analysis; format: functional, cell-based; details: time 2.0 day
MDA-MB-231 [20] = assay: Antimigratory activity in human MDA-MB-231 cells assessed as downregulation of MMP-2 level at 4 uM by DAPI staining based immunofluorescence analysis; format: functional, cell-based
MDA-MB-231 [21] = assay: Induction of HR DNA repair in human MDA-MB-231 cells xenografted in BALB/c nude mouse assessed as decrease in BRCA1 level at 50 mg/kg, po for 14 days in presence of 1:1 of compound:Pazopanib by H and E staining based IHC analysis; format: functional, organism-based; details: time 14.0 day
MDA-MB-231 [22] = assay: Antimigratory activity in human MDA-MB-231 cells assessed as upregulation of E-cadherin level at 4 uM incubated for 2 days by immunoblot analysis; format: functional, cell-based; details: time 2.0 day
MCF7 [23] = assay: Induction of cell cycle arrest at S phase in human MCF7 cells at 4 uM by Annexin-V-FLUOS staining based flow cytometry; format: functional
[24] = target: T3, Vascular endothelial growth factor receptor 3; details: MDA-MB-231, dose 25-50 mg/kg, route po, time 14.0 day; remark: listed apart in the source
[25] = target: T1, Vascular endothelial growth factor receptor 1; details: MDA-MB-231, dose 25-50 mg/kg, route po, time 14.0 day; remark: listed apart in the source
[26] = target: T1, Vascular endothelial growth factor receptor 1; details: MDA-MB-231, dose 25-50 mg/kg, route po, time 14.0 day; remark: listed apart in the source
[27] = target: T3, Vascular endothelial growth factor receptor 3; details: MDA-MB-231, dose 25-50 mg/kg, route po, time 14.0 day; remark: listed apart in the source

inhibition [3]: Active
inhibition [4]: Active
inhibition [5]: Active
inhibition [7]: Active
inhibition [10]: Active
inhibition [17]: Active
Structure (SMILES): O=C(c1cc(Cc2n[nH]c(=O)c3ccccc23)ccc1F)N1CCN(C(=O)C2CC2)CC1 [OLAPARIB]
Activity (MCF7 [1]): Active
Activity (MCF7 [2]): Active
Activity (MDA-MB-231 [6]): Active
Activity (MDA-MB-231 [8]): Active
Activity (MCF7 [9]): Active
Activity (MDA-MB-231 [11]): Active
Activity (MDA-MB-231 [12]): Active
Activity (MCF7 [13]): Active
Activity (MCF7 [14]): Active
Activity (MDA-MB-231 [15]): Active
Activity (MCF7 [16]): Active
Activity (MDA-MB-231 [18]): Active
Activity (MCF7 [19]): Active
Activity (MDA-MB-231 [20]): Active
Activity (MDA-MB-231 [21]): Active
Activity (MDA-MB-231 [22]): Active
Activity (MCF7 [23]): Active

inhibition [24]: Active
inhibition [25]: Active
inhibition [26]: Active
inhibition [27]: Active
Structure (SMILES): Cc1ccc(Nc2nccc(N(C)c3ccc4c(C)n(C)nc4c3)n2)cc1-c1nc2c(C(N)=O)cccc2[nH]1
